Literature values in PMC8081377 (Mutagenesis, 2021).

Test system: bacterial strains (Std strains, TA102, E. coli)
Conditions: only in the presence of metabolic activation; ref Supplementary Table S1; cited from earlier work

C1=Cc2cc3cccc4ccc5ccc1c2c5c43 [Cyclopenta[c,d]pyrene (CPPE), Cyclopenta[c,d]pyrene]
Ames assay: positive
